Experimental data from ChEMBL document CHEMBL3877309, “Determination of binding modes and binding constants for the complexes of 6H-pyrido[4,3-b]carbazole derivatives with DNA” (Bioorg Med Chem, 2017).

What was measured:
[1] = Binding affinity to synthetic biotin-labeled 30-mer GC-rich duplex DNA in pH 7.4 EDTA buffer solution assessed as association rate constant in presence of 0.05 M NaCl at 25 degC by QCM sensogram analysis
[2] = Binding affinity to synthetic biotin-labeled 30-mer GC-rich duplex DNA in pH 7.4 EDTA buffer solution in presence of 0.05 M NaCl at 25 degC by QCM sensogram analysis
[3] = Binding affinity to synthetic biotin-labeled 30-mer AT-rich duplex DNA in pH 7.4 EDTA buffer solution in presence of 0.05 M NaCl at 25 degC by QCM sensogram analysis
[4] = Binding affinity to synthetic biotin-labeled 30-mer GC-rich duplex DNA in pH 7.4 EDTA buffer solution assessed as dissociation rate constant in presence of 0.05 M NaCl at 25 degC by QCM sensogram analysis
[5] = Binding affinity to synthetic biotin-labeled 30-mer GC-rich duplex DNA in pH 7.4 EDTA buffer solution assessed as ratio of association rate constant to dissociation rate constant in presence of 0.05 M NaCl at 25 degC by QCM sensogram analysis
[6] = Ratio of Ka for synthetic biotin-labeled 30-mer GC-rich duplex DNA in presence of 200 mM NaCl to Ka for synthetic biotin-labeled 30-mer GC-rich duplex DNA in presence of 50 mM NaCl
[7] = Binding affinity to synthetic biotin-labeled 30-mer GC-rich duplex DNA in pH 7.4 EDTA buffer solution in presence of 200 mM NaCl at 25 degC by QCM sensogram analysis
[8] = Binding affinity to synthetic biotin-labeled 30-mer GC-rich duplex DNA in pH 7.4 EDTA buffer solution in presence of 50 mM NaCl at 25 degC by QCM sensogram analysis
[9] = Binding affinity to synthetic biotin-labeled 30-mer AT-rich duplex DNA in pH 7.4 EDTA buffer solution assessed as ratio of association rate constant to dissociation rate constant in presence of 0.05 M NaCl at 25 degC by QCM sensogram analysis
[10] = Binding affinity to synthetic biotin-labeled 30-mer AT-rich duplex DNA in pH 7.4 EDTA buffer solution assessed as dissociation rate constant in presence of 0.05 M NaCl at 25 degC by QCM sensogram analysis
[11] = Binding affinity to synthetic biotin-labeled 30-mer AT-rich duplex DNA in pH 7.4 EDTA buffer solution assessed as association rate constant in presence of 0.05 M NaCl at 25 degC by QCM sensogram analysis

| Compound | Ka [2] [×10⁵ /M] | Ka [3] [×10⁵ /M] | Ratio [6] | Ka [7] [×10⁵ /M] | Ka [8] [×10⁵ /M] | further results |
| --- | --- | --- | --- | --- | --- | --- |
| Cc1c2cc[n+](C)cc2c(C)c2c1[nH]c1ccccc12 | 29.9 | 8.37 | – | – | – | K [1]: 0.51 ×10⁴ /M/s; K [4]: 1.51 ×10⁻³ /s; Ratio [5]: 3.4 ×10⁶ /M |
| Cc1c2cc[n+](CCOCCN)cc2c(C)c2c1[nH]c1ccccc12.[Cl-] | 299 | 65.1 | 0.4 to 0.5 | 92.8 | 299 | – |
| COc1ccc2[nH]c3c(C(=O)NCCN)c4cc[n+](C)cc4c(C)c3c2c1 | 124 | 19.9 | 0.067 | 8.28 | 124 | K [1]: 1.82 ×10⁴ /M/s; K [4]: 1.64 ×10⁻³ /s; Ratio [9]: 1.71 ×10⁶ /M; K [10]: 12.5 ×10⁻³ /s; K [11]: 2.14 ×10⁴ /M/s; Ratio [5]: 11.2 ×10⁶ /M |
| Cc1c2c[n+](C)ccc2c(C(=O)NCCCN)c2[nH]c3ccccc3c12 | 89.2 | 3.44 | – | – | – | – |
| CNC(=O)NCCNC(=O)c1c2cc[n+](C)cc2c(C)c2c1[nH]c1ccccc12 | 2.87 | 1.87 | 0.4 to 0.5 | 0.899 | 2.87 | – |
| CNC(=O)NCCCNC(=O)c1c2cc[n+](C)cc2c(C)c2c1[nH]c1ccccc12 | 1.5 | 1.72 | – | – | – | – |
| COC(=O)c1c2cc[n+](CCNCCN)cc2c(C)c2c1[nH]c1ccccc12 | 82 | 16 | – | – | – | – |
| CNC(=O)NCCCCNC(=O)c1c2cc[n+](C)cc2c(C)c2c1[nH]c1ccccc12 | 1.83 | 2.49 | – | – | – | – |
| Cc1c2c[n+](C)ccc2c(C(=O)NCCOCCN)c2[nH]c3ccccc3c12 | 53.7 | 4.42 | – | – | – | – |
| CNC(=O)NCCOCC[n+]1ccc2c(C)c3c(c(C)c2c1)c1cc(O)ccc1n3C | 21.2 | 4.5 | 0.4 to 0.5 | 11.5 | 21.2 | – |
| CNC(=O)NCCNC(=O)c1c2ccncc2c(C)c2c1[nH]c1ccc(OC)cc12 | 3.03 | 4.75 | – | – | – | – |
| Cc1c2c[n+](C)ccc2c(C(=O)NCCN)c2[nH]c3ccccc3c12 | 21.1 | 3.81 | 0.4 to 0.5 | 7.55 | 21.1 | – |
| Cc1c2cc[n+](CCOCCN)cc2c(C)c2c1[nH]c1ccc(O)cc12.[Cl-] | 387 | 311 | 0.4 to 0.5 | 155 | 387 | – |
| COC(=O)c1c2cc[n+](C)cc2c(C)c2c1[nH]c1ccccc12 | 15.6 | 10.5 | – | – | – | – |
| Cc1c2c[n+](C)ccc2c(C(=O)NCCCCN)c2[nH]c3ccccc3c12 | 39.7 | 4.31 | – | – | – | – |
| CNC(=O)NCCCCCNC(=O)c1c2cc[n+](C)cc2c(C)c2c1[nH]c1ccccc12 | 2.69 | 2.14 | – | – | – | – |

| Compound | Ka [2] [×10⁵ /M] | Ka [3] [×10⁵ /M] | Ratio [6] | Ka [7] [×10⁵ /M] | Ka [8] [×10⁵ /M] | further results |
| --- | --- | --- | --- | --- | --- | --- |
| CNC(=O)NCCOCC[n+]1ccc2c(C)c3[nH]c4ccc(O)cc4c3c(C)c2c1.[Cl-] | 32.8 | 6.81 | 0.4 to 0.5 | 13 | 32.8 | – |
| Cc1c2cc[n+](CCN)cc2c(C)c2c1[nH]c1ccccc12 | 120 | 40.3 | – | – | – | – |
| Cc1c2ccncc2c(C)c2c1[nH]c1ccc(O)cc12 | 107 | – | – | – | – | – |
| COc1ccc2[nH]c3c(C(=O)NCCN)c4ccncc4c(C)c3c2c1 | 20.5 | 3.88 | 0.4 to 0.5 | 7.41 | 20.5 | – |
| CNC(=O)NCCNC(=O)c1c2ccncc2c(C)c2c1[nH]c1ccccc12 | 2.01 | 1.67 | – | – | – | – |
| COC(=O)c1c2cc[n+](CCN)cc2c(C)c2c1[nH]c1ccccc12.[Cl-] | 94.2 | 39.5 | – | – | – | – |
| Cc1c2ccncc2c(C)c2c1[nH]c1ccccc12 [ELLIPTECINE] | 12.3 | 4.2 | – | – | – | – |
| CNC(=O)NCCNCCNC(=O)c1c2cc[n+](C)cc2c(C)c2c1[nH]c1ccccc12 | 1.66 | 2.2 | – | – | – | – |
| Cc1c2cnccc2c(C(=O)NCCN)c2[nH]c3ccccc3c12 | 14.5 | 1.82 | 0.4 to 0.5 | 5.31 | 14.5 | – |
| CNC(=O)NCCNC(=O)c1c2cc[n+](C)cc2c(C)c2c1[nH]c1ccc(OC)cc12 | 3.62 | 2.04 | 0.4 to 0.5 | 1.46 | 3.62 | – |
| Cc1c2c[n+](C)ccc2c(C(=O)NCCCCCN)c2[nH]c3ccccc3c12 | 24.3 | 2.86 | – | – | – | – |
| Cc1c2c[n+](CCCCCN)ccc2c(C)c2c1c1cc(O)ccc1n2C.[Cl-] | 454 | 137 | 0.4 to 0.5 | 272 | 454 | – |
| Cc1c2cnccc2c(C)c2c1c1ccccc1n2C | 6.88 | – | – | – | – | – |
| COC(=O)c1c2cc[n+](CCOCCN)cc2c(C)c2c1[nH]c1ccccc12.[Cl-] | 111 | 80 | – | – | – | – |
| Cc1c2c[n+](C)ccc2c(C(=O)NCCNCCN)c2[nH]c3ccccc3c12 | 4.85 | 2.64 | – | – | – | – |
| CNC(=O)NCCOCCNC(=O)c1c2cc[n+](C)cc2c(C)c2c1[nH]c1ccccc12 | 1.68 | 1.89 | – | – | – | – |
